Values of other authors, collected in patent US10753947B2, “Methods for screening voltage-gated proteins” (D.E. Shaw Research, LLC, priority 2012, dated 2020).

Protein sequences, listed by entry. Tags and fused reporters are not part of them.
UniProt P22001, whole entry: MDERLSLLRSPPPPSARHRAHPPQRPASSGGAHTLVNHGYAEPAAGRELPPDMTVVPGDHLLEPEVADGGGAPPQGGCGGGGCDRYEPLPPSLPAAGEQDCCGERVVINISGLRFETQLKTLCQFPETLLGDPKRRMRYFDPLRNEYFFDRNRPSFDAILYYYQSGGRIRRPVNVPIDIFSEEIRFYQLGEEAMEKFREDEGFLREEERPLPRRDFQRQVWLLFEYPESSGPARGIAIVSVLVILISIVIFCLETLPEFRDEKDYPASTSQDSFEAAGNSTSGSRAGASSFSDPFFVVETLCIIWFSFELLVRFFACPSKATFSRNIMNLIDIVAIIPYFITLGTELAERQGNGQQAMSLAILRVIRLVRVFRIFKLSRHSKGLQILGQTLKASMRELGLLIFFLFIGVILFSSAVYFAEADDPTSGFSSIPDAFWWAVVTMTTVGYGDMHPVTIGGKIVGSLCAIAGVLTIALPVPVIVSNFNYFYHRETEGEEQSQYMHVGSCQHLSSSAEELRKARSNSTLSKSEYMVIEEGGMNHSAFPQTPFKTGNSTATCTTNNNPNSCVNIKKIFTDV

Target: Kv1.3 (Homo sapiens, UniProt P22001)
Details: Table 2, modulating Kv1.3 ion conductance; tested form: HCl; cited from earlier work

Question: For `CCCN=c1ccn(Cc2ccccc2)c2cc(Cl)ccc12`, which IC50 is on record?
Answer: Its IC50 is 200 nM.
